According to PubChem BioAssay AID1508615 (Milbrandt Lab, Department of Genetics, Washington …, 2020):
The list shows a part of the results, in another mix than the full data. Activity calls are given as the source filed them.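 Rule for the calls: active = ratio of uncleaved NAD to its breakdown product ADP-ribose above 4, meaning the enzyme was inhibited; inactive = the rest.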

Sequences of proteins named here, by UniProt entry; tags and fusion partners are left off.
UniProt Q6SZW1, whole entry, looked up: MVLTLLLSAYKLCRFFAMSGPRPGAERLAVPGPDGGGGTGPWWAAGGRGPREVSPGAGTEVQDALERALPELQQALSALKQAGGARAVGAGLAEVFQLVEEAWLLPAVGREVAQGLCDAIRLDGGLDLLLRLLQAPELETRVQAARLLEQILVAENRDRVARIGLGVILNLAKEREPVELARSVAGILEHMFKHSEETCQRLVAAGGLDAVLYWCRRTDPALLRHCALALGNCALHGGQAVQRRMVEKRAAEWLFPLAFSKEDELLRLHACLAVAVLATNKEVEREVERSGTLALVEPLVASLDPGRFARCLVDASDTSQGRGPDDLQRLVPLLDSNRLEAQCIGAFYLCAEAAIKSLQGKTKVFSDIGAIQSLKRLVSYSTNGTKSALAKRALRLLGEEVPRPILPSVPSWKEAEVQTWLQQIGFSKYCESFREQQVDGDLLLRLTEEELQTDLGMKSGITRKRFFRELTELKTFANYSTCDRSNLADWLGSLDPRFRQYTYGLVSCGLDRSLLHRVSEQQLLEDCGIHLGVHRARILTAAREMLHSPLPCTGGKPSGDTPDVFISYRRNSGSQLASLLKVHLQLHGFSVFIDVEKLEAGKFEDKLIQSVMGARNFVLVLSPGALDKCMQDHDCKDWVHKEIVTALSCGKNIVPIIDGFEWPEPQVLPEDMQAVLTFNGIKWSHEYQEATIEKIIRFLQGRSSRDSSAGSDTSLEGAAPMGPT

Each compound was assayed against NAD(+) hydrolase SARM1 (Homo sapiens) (UniProt Q6SZW1) (assay: inhibition of SAM-TIR NAD hydrolysis to ADPR – cell lysate, HPLC readout, primary screen (AID 1508615)). Conditions: HEK293T SAM-TIR lysate, NAD/ADPR ratio by HPLC; at 5 µM.
`Nc1cccc2ccc([As](=O)(O)O)cc12` was tested, and the outcome was “inactive”.
`CC(=O)Nc1ccc([As](=O)(O)O)cc1` was tested, and the outcome was “inactive”.
With `O=C(O)c1ccccc1[As](=O)(O)O` the outcome was “inactive”.
In the case of `c1cc(-c2nn[nH]n2)ccc1-c1nn[nH]n1`, the outcome is reported as “inactive”.
With `CC(C)c1nc(Nc2ccccc2)n(P(=O)(N(C)C)N(C)C)n1` the outcome was “inactive”.
`O=C(O)CNc1ccc([As](=O)(O)O)cc1` was tested, and the outcome was “inactive”.
In the case of `Nc1ccc([As](=O)(O)O)c(O)c1`, the outcome is reported as “inactive”.
In the case of `O=C(Nc1cc([As](=O)(O)O)ccc1O)c1ccccc1`, the outcome is reported as “inactive”.
For `Nc1ccc([As](=O)(O)c2ccc([N+](=O)[O-])cc2)cc1`, the outcome was “inactive”.
In the case of `O=[As](O)(c1ccccc1)c1ccc(O)cc1`, the outcome is reported as “inactive”.
With `O=[N+]([O-])c1ccc(OP2(=O)COCCO2)cc1` (configuration not stated) the outcome was “inactive”.
In the case of `O=P1(N(CCCl)CCCl)OCCC2CCCCN21` (configuration not stated), the outcome is reported as “inactive”.
In the case of `O=C(O)COc1ccc([As](=O)(O)O)cc1[N+](=O)[O-]`, the outcome is reported as “inactive”.
For `Nc1cccc2c([As](=O)(O)O)cccc12`, the outcome was “inactive”.
In the case of `CCCOP(=S)(Nc1nc(N)cc(=O)[nH]1)OCCC`, the outcome is reported as “inactive”.
In the case of `O=[As](O)(c1cccc(O)c1)c1cccc(O)c1`, the outcome is reported as “inactive”.
With `O=[As](O)(O)c1cccnc1` the outcome was “inactive”.
In the case of `CCOP(=O)(Nc1ccc(C)cn1)OCC`, the outcome is reported as “inactive”.
In the case of `Nc1cccc([As](=O)(O)c2ccccc2)c1`, the outcome is reported as “inactive”.
For `O=[As](O)(c1cccs1)c1cccs1`, the outcome was “inactive”.
In the case of `O=[As]1(O)c2ccccc2-c2ccccc21`, the outcome is reported as “inactive”.
For `O=[N+]([O-])c1ccc(Nc2ccc(Oc3ccc([N+](=O)[O-])cc3[N+](=O)[O-])cc2)c([N+](=O)[O-])c1`, the outcome was “inactive”.
In the case of `CCOC(=O)Nc1cccc([As](=O)(O)O)c1`, the outcome is reported as “inactive”.
In the case of `CCOC(=O)Nc1ccc([As](=O)(O)O)c(O)c1`, the outcome is reported as “inactive”.
In the case of `COc1cc(I)ccc1[As](=O)(O)O`, the outcome is reported as “inactive”.
For `O=[As](O)(c1ccc(Cl)cc1)C1CCCCC1O` (configuration not stated), the outcome was “inactive”.
With `C[As](=O)(O)c1cccc(C(=O)O)c1` the outcome was “inactive”.
